These results are taken from PubChem BioAssay AID624291 (National Center for Advancing Translational Sciences (NCATS), 2012).

The entries are a selection whose mix differs from that of the whole data set. Records with an inconclusive call do not appear. A call without a number means that no potency is given here. Some salts or complexes appear as unconnected parts, following the source record. The source made the active and inactive calls. Calls come from the whole dose curve; as a rule, active = well fitted activation curve with a large enough effect; inconclusive = small, poorly fitted or top-dose-only effect; inactive = no such curve, though single readings can be large or run the other way.
Potency is the fitted concentration of half-maximal effect.

The assay in a line: qHTS for Activators of Integrin-Mediated Alleviation for Muscular Dystrophy. Note: nearly all actives have a fitted effect of over 60% in size. The note with it: alpha7betagal myoblasts, beta-gal FDG fluorescence, 48 h; series mostly up to 38.3 µM. A general note: qHTS replaces the single test concentration by a dilution series.
Turning to `CCOC(=O)N1CCC(Nc2cccc(C)c2)CC1`, the Potency result was “inactive”.
With `COc1cc(C(=O)NCC2(N(C)C)CCCCC2)ccc1OC(F)F` the entry was “inactive”; with `CCOC(=O)N1CCC(Nc2ccc(F)cc2)CC1`, “inactive”.
The same measure for `COc1ccc(NC2CCN(CCc3ccccc3)CC2)c(OC)c1`: “inactive”; for `CCCCOc1ccc(C(=O)NCC2(N3CCOCC3)CCCCC2)cc1`: “inactive”.
With `O=P1(N(CCCl)CCCl)SCCCS1` the entry was “inactive”; with `O=C(NCC1(N2CCCCC2)CCCCC1)c1ccc(F)cc1`, “inactive”; with `CCOc1ccc(C)cc1CN(CCCl)CCCl`, “inactive”.
Consider `O=C1CCN(Cc2ccccc2)CC1`, for which the Potency result was “inactive”.
The same measure for `CCOC(=O)N1CCC(Nc2ccc(OC)cc2)CC1`: “inactive”.
The same measure for `O=C1C(O)=C([N+](=O)[O-])C(=O)C(O)=C1[N+](=O)[O-]`: “inactive”; for `N#CC1(Nc2ccccc2)CCN(Cc2ccccc2)CC1`: “inactive”; for `O=C(NCC1(N2CCCCC2)CCCCC1)c1ccc(Cl)s1`: “inactive”.
The same measure for `O=C(OC1CN2CCC1CC2)C1c2ccccc2Oc2ccccc21` (stereo not drawn): “inactive”; for `O=C(NCC1(N2CCOCC2)CCCCC1)c1cc2ccccc2o1`: “inactive”; for `Cc1cc(C)cc(N(C(=O)c2ccccc2)C2CCN(C(=O)OC(C)(C)C)CC2)c1`: “inactive”.
For `O=C(NCC1(N2CCCCC2)CCCCC1)c1ccc(Cl)nc1`, the Potency entry was “inactive”.
The same measure for `Cc1cccc(NC2(C#N)CCN(Cc3ccccc3)CC2)c1`: “inactive”; for `CSc1ccccc1C(=O)NCC1(N2CCCCC2)CCCCC1`: “inactive”.
With `O=C(NCC1(N2CCCCC2)CCCCC1)c1cccs1` the entry was “inactive”; with `O=C(NCC1(N2CCCCC2)CCCCC1)c1ccc(=O)[nH]c1`, “inactive”; with `CC(C)(C)OC(=O)N1CCC(N(C(=O)c2ccccc2)c2ccc(F)cc2)CC1`, “inactive”.
The same measure for `COc1ccc(C(=O)NCC2(N3CCCCC3)CCCCC2)c(OC)c1OC`: “inactive”; for `COc1ccc(C(=O)NCC2(N3CCCCC3)CCCCC2)cc1`: “inactive”.
As to `CCCOc1ccc(C(=O)NCC2(N(C)C)CCCCC2)cc1OC`, the Potency result is “inactive”.
The same measure for `Cc1ccc(C(=O)NCC2(N(C)C)CCCCC2)o1`: “inactive”.
The same measure for `O=[N+]([O-])c1cc([N+](=O)[O-])c(Nc2ccc(Cl)cc2)c([N+](=O)[O-])c1`: “inactive”.
With `CN1CCC(Nc2cccc(F)c2)CC1` the entry was “inactive”.
Take `COc1ccc2c(c1O)-c1c(O)c(OC)cc3c1[C@H](C2)[N+](C)(C)CC3.O=[N+]([O-])c1cc([N+](=O)[O-])c([O-])c([N+](=O)[O-])c1[O-]`: the Potency entry is “inactive”.
With `O=C(NCC1(N2CCCCC2)CCCCC1)c1cncc(Br)c1` the entry was “inactive”.
With `O=C(OC1CN2CCC1CC2)c1ccc([N+](=O)[O-])cc1` (stereo not drawn) the entry was “inactive”; with `O=C(NCC1(N2CCOCC2)CCCCC1)c1cc(F)c(F)cc1Cl`, “inactive”; with `COc1cc(OC)c(C(=O)NCC2(N(C)C)CCCCC2)cc1OC`, “inactive”.
For `CN(C)c1cccc(C(=O)NCC2(N3CCCCC3)CCCCC2)c1`, the Potency result is “inactive”.
For the compound `O=[N+]([O-])c1cc([N+](=O)[O-])c(OC2CCCCC2O)c([N+](=O)[O-])c1` (stereo not drawn), the Potency result is “inactive”.
With `COc1ccc(CN(CCCl)CCCl)cc1Cl` the entry was “inactive”; with `CC(C)c1ccc(NC2CCN(C(=O)OC(C)(C)C)CC2)cc1`, “inactive”; with `CC(C)c1ccc(C(=O)NCC2(N3CCOCC3)CCCCC2)cc1`, “inactive”.
Turning to `COc1ccc(NC2CCN(C(=O)OC(C)(C)C)CC2)cc1`, the Potency entry is “inactive”.
With `CN1CCN(CCOC(=O)C(O)(c2ccccc2)c2ccccc2)CC1` the entry was “inactive”.
With `O=C(NCC1(N2CCOCC2)CCCCC1)c1cc(=O)[nH]c2ccccc12` the entry was “inactive”; with `COc1cc(C(=O)NCC2(N3CCCCC3)CCCCC2)ccc1OC(F)F`, “inactive”.
The same measure for `O=C(NCC1(N2CCCCC2)CCCCC1)c1cccc(C(F)(F)F)c1`: “inactive”; for `O=[N+]([O-])c1cc([N+](=O)[O-])c(NCC2CCS(=O)(=O)C2)c([N+](=O)[O-])c1` (stereo not drawn): “inactive”.
With `CSc1ccc(C(=O)NCC2(N3CCOCC3)CCCCC2)cc1`, the Potency result was “inactive”.
With `O=C(NCC1(N2CCCCC2)CCCCC1)c1cccc([N+](=O)[O-])c1` the entry was “inactive”; with `N#CC1(Nc2ccccc2)CCN(CCc2ccccc2)CC1`, “inactive”.
With `CCN1CCC(Nc2ccc(Cl)cc2)CC1` the entry was “inactive”; with `O=C(NCC1(N2CCCCC2)CCCCC1)c1ccc(OC(F)F)cc1`, “inactive”.
With `Cc1cc(N(CCCl)CCCl)ccc1C=O` the entry was “inactive”; with `CCCN1CCC(Nc2cc(OC)cc(OC)c2)CC1`, “inactive”.
For `c1ccc(CN2CCC(Nc3ccccc3)CC2)cc1`, the Potency entry was “inactive”.
In the case of `CN(C)C1(CNC(=O)c2cccc(C#N)c2)CCCCC1`, the Potency result was “inactive”.
Consider `CCOC(=O)C(CC)C1=NC(C)(C)Cc2ccccc21.O=[N+]([O-])c1cc([N+](=O)[O-])c(O)c([N+](=O)[O-])c1` (stereo not drawn), for which the Potency entry was “inactive”.
With `CC(C)(C)OC(=O)N1CCC(N(C(=O)c2ccccc2)c2ccc(Cl)cc2)CC1` the entry was “inactive”.
Regarding `N#Cc1ccc(C(=O)NCC2(N3CCCCC3)CCCCC2)cc1`, the Potency entry was “inactive”.
The same measure for `O=C(O)c1cccc(Nc2c([N+](=O)[O-])cc([N+](=O)[O-])cc2[N+](=O)[O-])c1`: “inactive”; for `CCc1cc(C(=O)NCC2(N3CCCCC3)CCCCC2)sc1C`: “inactive”; for `O=C(OC1CN2CCC1CC2)C1c2ccccc2C=Cc2ccccc21` (stereo not drawn): “inactive”.
The same measure for `N/C(=N\O)c1c(N)no[n+]1[O-]`: “inactive”; for `CCOC(=O)N1CCC(Nc2ccc(C)cc2)CC1`: “inactive”; for `COc1ccc(C(=O)NCC2(N3CCOCC3)CCCCC2)cc1OC`: “inactive”.
The same measure for `O=C(NCC1(N2CCOCC2)CCCCC1)c1cc(Br)ccc1Cl`: active: 8.91 µM; for `COc1cc(C(=O)NCC2(N3CCOCC3)CCCCC2)cc(OC)c1C`: “inactive”.
Regarding `CN1CCC(Nc2ccc(Cl)cc2)CC1`, the Potency result is “inactive”.
On to `CCC(CO)(C(=O)OC1CN2CCC1CC2)c1ccccc1` (stereo not drawn), for which the Potency result is “inactive”.
`COc1cccc(C(=O)N(c2cc(C)cc(C)c2)C2CCN(C(=O)OC(C)(C)C)CC2)c1`: the Potency entry is “inactive”.
The same measure for `COc1cc(OC)cc(C(=O)NCC2(N3CCOCC3)CCCCC2)c1`: “inactive”.
With `CCCOc1ccc(C(=O)NCC2(N(C)C)CCCCC2)cc1` the entry was “inactive”; with `O=C(O)C1(Nc2ccccc2)CCN(Cc2ccccc2)CC1`, “inactive”.
The same measure for `CC(C)(C)OC(=O)N1CCC(Nc2ccccc2)CC1`: “inactive”.
For the compound `CN1CCC(Nc2ccc(F)c(Cl)c2)CC1`, the Potency result was “inactive”.
The same measure for `CCOc1ncccc1C(=O)NCC1(N2CCOCC2)CCCCC1`: “inactive”.
With `CN(C)c1ccc(C(=O)NCC2(N3CCCCC3)CCCCC2)cc1` the entry was “inactive”; with `Cn1c(=O)[nH]cc(N(CCCl)CCCl)c1=O`, “inactive”.
With `CCN1CCC(Nc2cccc(F)c2)CC1` the entry was “inactive”; with `Cc1ccccc1NC1(C#N)CCN(Cc2ccccc2)CC1`, “inactive”; with `Cc1ccc(NC2(C#N)CCN(Cc3ccccc3)CC2)cc1`, “inactive”.
As to `Fc1ccccc1NC1CCN(Cc2ccccc2)CC1`, the Potency result is “inactive”.
The same measure for `Cc1ccc(Nc2c([N+](=O)[O-])cc([N+](=O)[O-])cc2[N+](=O)[O-])cc1`: “inactive”.
With `Cc1ccc(C(=O)NCC2(N3CCCCC3)CCCCC2)o1` the entry was “inactive”; with `COc1cc(OC)cc(C(=O)NCC2(N3CCCCC3)CCCCC2)c1`, “inactive”.
The same measure for `CC(=O)N(c1ccccc1)C1CCNCC1`: “inactive”.
